# Measured values from PubChem BioAssay AID1347419 (Sanford-Burnham Center for Chemical Genomics, 2020).
# Amino acid sequences for entries named in this document (tags omitted).
# UniProt Q14289, whole entry, looked up: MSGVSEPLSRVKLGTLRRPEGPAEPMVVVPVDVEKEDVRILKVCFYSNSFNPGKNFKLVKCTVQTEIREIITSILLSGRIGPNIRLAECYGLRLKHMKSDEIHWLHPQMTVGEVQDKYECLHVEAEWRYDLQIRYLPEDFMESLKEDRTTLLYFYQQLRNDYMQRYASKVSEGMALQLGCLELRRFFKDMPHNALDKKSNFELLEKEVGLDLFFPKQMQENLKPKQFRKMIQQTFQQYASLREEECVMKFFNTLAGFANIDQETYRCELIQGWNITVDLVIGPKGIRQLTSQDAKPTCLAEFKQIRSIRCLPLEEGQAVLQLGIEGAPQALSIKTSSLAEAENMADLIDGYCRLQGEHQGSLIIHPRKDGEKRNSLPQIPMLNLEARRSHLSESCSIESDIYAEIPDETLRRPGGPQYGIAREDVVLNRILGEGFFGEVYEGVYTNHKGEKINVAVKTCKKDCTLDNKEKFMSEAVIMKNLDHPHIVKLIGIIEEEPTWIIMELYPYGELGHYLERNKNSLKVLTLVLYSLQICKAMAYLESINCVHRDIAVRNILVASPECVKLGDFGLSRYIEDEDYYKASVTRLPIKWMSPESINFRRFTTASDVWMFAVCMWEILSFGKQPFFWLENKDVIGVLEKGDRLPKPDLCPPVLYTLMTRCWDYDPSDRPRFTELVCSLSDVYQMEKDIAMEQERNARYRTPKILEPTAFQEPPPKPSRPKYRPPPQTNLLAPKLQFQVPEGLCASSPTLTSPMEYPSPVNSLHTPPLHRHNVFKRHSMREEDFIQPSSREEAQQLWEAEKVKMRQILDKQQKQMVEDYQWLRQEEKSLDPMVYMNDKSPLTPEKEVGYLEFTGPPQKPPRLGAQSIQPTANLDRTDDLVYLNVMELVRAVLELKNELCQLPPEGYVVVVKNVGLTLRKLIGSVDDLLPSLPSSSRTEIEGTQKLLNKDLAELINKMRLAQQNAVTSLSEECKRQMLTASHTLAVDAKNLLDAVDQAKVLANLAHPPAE
# The entries are a selection whose mix differs from that of the whole data set. Some of these compounds have results that are not shown, active ones among them. Calls of active or inactive are those of the source.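 Rule for the calls: active = Z-score of -3 or lower, scaled per plate to the spread of control and sample wells; inactive = z-score above -3.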
# Target: Protein-tyrosine kinase 2-beta (Homo sapiens) (UniProt Q14289)
# Experiment: antagonists of Pyk2 self-association, primary screen, Q293 cells, FERM NanoBiT luminescence, HTS (AID 1347419);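 note: the deposit names both 25 µM and 10 µM; negative z-score means lost luminescence so less FERM oligomerization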
# Design: dose or concentration left out as unconfirmed
# Conditions: hits give low values
row,SMILES,z-score
1,O=C(OC1CN2CCC1CC2)C(CO)(c1ccccc1)c1ccccc1 (stereo not drawn),inactive: 0.44
2,CN(C)c1cccc(C(=O)NCC2(N(C)C)CCCCC2)c1,inactive: 0.2
3,CC(C)N1C(=O)CC2(CCN(CCOC(=O)C(O)(c3ccccc3)c3ccccc3)CC2)C1=O,inactive: -0.36
